Results on 1 molecule are retold here after patent US8691184B2, “Bcl-2/Bcl-xL inhibitors and therapeutic methods using the same” (The Regents of the University of Michigan, priority 2011, dated 2014).

Sequences of proteins named here, by UniProt entry; tags and fusion partners are left off.
UniProt Q07820, whole entry, species assumed: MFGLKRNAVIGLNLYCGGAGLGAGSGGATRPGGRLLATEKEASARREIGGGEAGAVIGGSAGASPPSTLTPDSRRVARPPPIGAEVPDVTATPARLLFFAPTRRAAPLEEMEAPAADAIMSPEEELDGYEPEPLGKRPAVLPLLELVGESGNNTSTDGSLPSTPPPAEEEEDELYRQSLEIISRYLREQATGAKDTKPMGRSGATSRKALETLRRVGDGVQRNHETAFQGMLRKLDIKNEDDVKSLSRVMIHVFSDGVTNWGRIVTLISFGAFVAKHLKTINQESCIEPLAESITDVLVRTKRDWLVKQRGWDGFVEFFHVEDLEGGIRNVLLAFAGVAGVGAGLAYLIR

The IC50 is the concentration that inhibits the measured activity by half.

This test has as its target Mcl-1 (Homo sapiens, UniProt Q07820). Kind of test: FP-based binding assay, Mcl-1. The following applies: Table 2, FP-based assay; read-out: Mcl-1 IC50 ± SD.

SMILES strings stand for the structures.

For `CN(C)CC[C@H](CSc1ccccc1)Nc1ccc(S(=O)(=O)NC(=O)c2ccc(N3CCN(Cc4ccccc4-c4ccc(Cl)cc4)CC3)cc2)cc1[N+](=O)[O-]` [ABT-737, reference compound], the half-maximal inhibitory concentration (IC50) was greater than 1000 nM.
